Here are results for one molecule from patent publication EP1506969B1, “Compounds with growth hormone releasing properties” (Helsinn Therapeutics (U.S.), Inc., priority 1998, dated 2010).

Data set [1] has as its system carboxypeptidase Y and B. The data set can be described thus: Metabolic stability in carboxypeptidase mix (ESMS, selected ion monitoring). The following applies: stability: decrease in SIM signal after 24 h in degradation solution; carboxypeptidase Y and B in 50 mM ammoniumacetate pH 4.5, 37°C.
The test system of data set [2] is trypsin, chymotrypsin and elastase. The data set can be described thus: Metabolic stability in pancreatic enzyme mix (ESMS, selected ion monitoring). Conditions: stability: decrease in SIM signal after 24 h in degradation solution, chymotrypsin and elastase in 100 mM ammoniumbicarbonate pH 8.0, 37°C.

On to `CSCC[C@H](NC(=O)[C@H](CC(C)C)NC(=O)[C@H](Cc1c[nH]c2ccccc12)NC(=O)[C@H](CCC(N)=O)NC(=O)[C@@H](NC(=O)[C@H](Cc1ccccc1)NC(=O)[C@H](CC(=O)O)NC(=O)[C@H](CCC(N)=O)NC(=O)[C@H](C)NC(=O)[C@H](CCCN=C(N)N)NC(=O)[C@H](CCCN=C(N)N)NC(=O)[C@H](CO)NC(=O)[C@H](CC(=O)O)NC(=O)[C@H](CC(C)C)NC(=O)[C@H](Cc1ccc(O)cc1)NC(=O)[C@H](CCCCN)NC(=O)[C@H](CO)NC(=O)[C@H](Cc1ccc(O)cc1)NC(=O)[C@H](CC(=O)O)NC(=O)[C@H](CO)NC(=O)[C@@H](NC(=O)[C@H](Cc1ccccc1)NC(=O)[C@@H](NC(=O)CNC(=O)[C@H](CCC(N)=O)NC(=O)[C@H](CO)NC(=O)[C@@H](N)Cc1c[nH]cn1)[C@@H](C)O)[C@@H](C)O)C(C)C)C(=O)N[C@@H](CC(N)=O)C(=O)N[C@H](C(=O)O)[C@@H](C)O` [Glucagon], for which, in data set [1], the Carboxy-peptidase mix result is listed as “- (Unstable (more than 20% decrease in SIM signal after 24 h in degradation solution))”. In addition, the Pan. enzyme mix result in data set [2] is on record as “- (Unstable (more than 20% decrease in SIM signal after 24 h in degradation solution))”.
